Patent US9040516B2, “Uracil derivative and use thereof for medical purposes” (SUMITOMO DAINIPPON PHARMA CO., LTD., priority 2011, dated 2015)

Protein sequences, listed by entry. Tags and fused reporters are not part of them. Residues count along the entry.
UniProt P08246, 30-267 limits assumed: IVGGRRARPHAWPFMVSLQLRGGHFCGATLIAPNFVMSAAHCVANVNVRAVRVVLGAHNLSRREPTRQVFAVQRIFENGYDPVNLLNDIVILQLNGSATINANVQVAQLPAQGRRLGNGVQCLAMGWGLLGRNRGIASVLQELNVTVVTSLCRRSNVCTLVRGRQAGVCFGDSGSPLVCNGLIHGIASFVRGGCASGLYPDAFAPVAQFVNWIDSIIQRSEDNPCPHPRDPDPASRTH

Target: human neutrophil elastase (Homo sapiens, UniProt P08246)
Assay: Inhibitory action 2 against human neutrophil elastase (Test Example 2; fluorogenic substrate MeOSuc-AAPV-AMC, buffer with 400 mM NaCl, 0.2 mg/ml BSA)
Settings: read-out: IC50 value (compound concentration required for 50% inhibition of human neutrophil elastase), 37° C.
Description: Assay buffer (0.4 unit/ml HNE (human neutrophil elastase, available from Elastin Products Company), 200 mM HEPES [N-(2-hydroxyethyl)piperazine-N′-(2-ethanesulfonic acid)], pH 7.5, 400 mM NaCl, 0.2 mg/ml BSA (bovine serum albumin)) 100 μl, water for injection 20 μl and 1% DMSO (dimethyl sulfoxide) solution of the present compound 20 μl were mixed in a 96 well plate and the mixed solutions were pre-incubated at 37° C. for five minutes. After pre-incubation, MeOSuc-AAPV-AMC (methoxysuccinyl-alanyl-alanyl-prolyl-valyl-aminomethyl cumaride (available from Sigma Aldrich Corp.) solution as fluorogenic substrate (which was dissolved in 10% DMSO solution so as to adjust to 0.5 mM) 40 μl was added to the above-prepared mixed solution so as to initiate the reaction, and the mixture was incubated at 37° C. for five minutes. The fluorescence intensity of AMC was measured at an excitation wavelength of 380 nm and a fluorescence wavelength of 460 nm and the inhibition ratio was determined.

| SMILES | IC50 [µM] |
| --- | --- |
| CCn1c(=O)c(-c2c(S(N)(=O)=O)cnn2-c2ccc(C#N)cc2)c(C)n(-c2cccc(C(F)(F)F)c2)c1=O | 0.0135 |
| Cc1c(-c2ccnn2-c2ccc(C#N)cc2)c(=O)n([C@H](C)CCNC2CCCC2)c(=O)n1-c1cccc(C(F)(F)F)c1 | 0.0142 |
| Cc1c(-c2c(S(=O)(=O)C3CCN(C)CC3)cnn2-c2ccc(C#N)cc2)c(=O)n(C)c(=O)n1-c1cccc(C(F)(F)F)c1 | 0.014 |
| CC(=O)N1CCN(Cc2cnn(-c3ccc(C#N)cc3)c2-c2c(C)n(-c3cccc(C(F)(F)F)c3)c(=O)n(C)c2=O)CC1 | 0.0272 |
| CCn1c(=O)c(-n2c(CC(=O)NC)nnc2-c2ccc(C#N)cc2)c(C)n(-c2cccc(C(F)(F)F)c2)c1=O | 0.0286 |
| Cc1c(-c2ccnn2-c2ccc(C#N)cc2)c(=O)n([C@@H]2CCCN(C)C2)c(=O)n1-c1cccc(C(F)(F)F)c1 | 0.0074 |
| Cc1c(-c2ccnn2-c2ccc(C#N)cc2)c(=O)n(C2CCN(CC(F)(F)F)CC2)c(=O)n1-c1cccc(C(F)(F)F)c1 | 0.0073 |
| CCn1c(=O)c(-n2c(CC(=O)N3CCOCC3)nnc2-c2ccc(C#N)cc2)c(C)n(-c2cccc(C(F)(F)F)c2)c1=O | 0.0145 |
| Cc1c(-c2c(CCC(N)=O)cnn2-c2ccc(C#N)cc2)c(=O)n(C)c(=O)n1-c1cccc(C(F)(F)F)c1 | 0.0243 |
| Cc1c(-c2c(CN3CCCC3)cnn2-c2ccc(C#N)cc2)c(=O)n(C)c(=O)n1-c1cccc(C(F)(F)F)c1 | 0.041 |
| CCn1c(=O)c(-n2c(-c3ccc(C#N)cc3)nnc2C2CCN(C)CC2)c(C)n(-c2cccc(C(F)(F)F)c2)c1=O | 0.021 |
| Cc1c(-c2ccnn2-c2ccc(C#N)cc2)c(=O)n([C@H](C)CC(N)=O)c(=O)n1-c1cccc(C(F)(F)F)c1 | 0.009 |
| Cc1nnc(-c2ccc(C#N)cc2)n1-c1c(C)n(-c2cccc(C(F)(F)F)c2)c(=O)n([C@H](C)CS(C)(=O)=O)c1=O | 0.0163 |
| Cc1c(-c2c(CN3CCOCC3)cnn2-c2ccc(C#N)cc2)c(=O)n(C)c(=O)n1-c1cccc(C(F)(F)F)c1 | 0.0143 |
| Cc1c(-c2ccnn2-c2ccc(C#N)cc2)c(=O)n([C@H](C)CNC2CCCC2)c(=O)n1-c1cccc(C(F)(F)F)c1 | 0.0051 |
| Cc1nnc(-c2ccc(C#N)cc2F)n1-c1c(C)n(-c2cccc(C(F)(F)F)c2)c(=O)n(C(C)C)c1=O | 0.0398 |
